# Assay results from ChEMBL document CHEMBL2380244, “Optimized chemical probes for REV-ERBα” (J Med Chem, 2013).
# Target: T1, Nuclear receptor subfamily 1 group D member 1 (Homo sapiens, UniProt P20393)
# T1 sequence (P20393 whole entry): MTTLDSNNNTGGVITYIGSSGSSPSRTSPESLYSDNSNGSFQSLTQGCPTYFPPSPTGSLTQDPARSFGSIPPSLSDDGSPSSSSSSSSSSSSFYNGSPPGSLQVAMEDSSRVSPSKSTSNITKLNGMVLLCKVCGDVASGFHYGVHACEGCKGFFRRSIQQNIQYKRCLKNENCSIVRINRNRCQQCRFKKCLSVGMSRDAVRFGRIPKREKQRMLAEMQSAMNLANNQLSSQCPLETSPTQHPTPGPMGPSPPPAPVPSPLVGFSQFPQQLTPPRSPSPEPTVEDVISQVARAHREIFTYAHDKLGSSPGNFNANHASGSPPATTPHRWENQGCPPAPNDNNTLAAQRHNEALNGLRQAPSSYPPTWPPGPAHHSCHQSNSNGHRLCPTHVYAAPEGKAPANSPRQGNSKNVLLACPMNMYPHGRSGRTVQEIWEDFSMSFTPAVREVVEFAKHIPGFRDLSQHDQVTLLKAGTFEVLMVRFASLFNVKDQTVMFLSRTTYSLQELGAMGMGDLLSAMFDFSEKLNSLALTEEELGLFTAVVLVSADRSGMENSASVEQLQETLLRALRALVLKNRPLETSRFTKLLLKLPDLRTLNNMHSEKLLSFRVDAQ
# Test: Agonist activity at biotinylated REV-ERBalpha (unknown origin) assessed as increase in biotinylated NCOR peptide recruitment after 1 hr by FRET assay
# How it was run: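 TR-FRET: 20 nM biotinylated REV-ERBα pre-complexed with 10 nM APC-streptavidin, excess biotin added, then mixed with 20 nM biotinylated NCOR1 on 10 nM Eu-streptavidin. MOPS pH 7.5 buffer with NaF, CHAPS, BSA and 10 mM DTT. Added to compound (serial DMSO dilutions of 10 mM stocks), 1 h at RT, Eu/APC read. Data normalized to basal and minimal HTRF, fitted to a 4-parameter logistic.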
compound,measurement,value
CCOC(=O)N1CCC(CN(Cc2ccc(Cl)cc2)Cc2ccc([N+](=O)[O-])s2)C1 (stereo unspecified) [SR9009],EC50,> 50 µM
